{"sequences": {"note": "The chains behind the UniProt entries cited, without tags or fusion partners. Where a name states a change or a piece, a line headed by the entry shows the natural chain unless it says otherwise.", "UniProt P30550": "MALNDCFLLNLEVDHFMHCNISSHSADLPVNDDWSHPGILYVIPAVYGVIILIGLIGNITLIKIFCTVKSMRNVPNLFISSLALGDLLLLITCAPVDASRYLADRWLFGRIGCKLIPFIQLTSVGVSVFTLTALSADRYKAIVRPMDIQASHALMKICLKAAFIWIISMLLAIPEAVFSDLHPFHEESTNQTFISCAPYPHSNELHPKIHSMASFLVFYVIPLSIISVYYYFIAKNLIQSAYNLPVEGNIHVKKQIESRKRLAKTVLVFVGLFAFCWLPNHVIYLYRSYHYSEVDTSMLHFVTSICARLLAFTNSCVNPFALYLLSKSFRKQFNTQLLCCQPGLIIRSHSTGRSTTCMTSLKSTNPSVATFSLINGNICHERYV"}, "source": "patent US12246076B2", "about": "“Radiolabeled compounds for in vivo imaging of gastrin-releasing peptide receptor (GRPR) and treatment of GRPR-related disorders” (PROVINCIAL HEALTH SERVICES AUTHORITY, priority 2022, dated 2025)", "origin": "cited, not measured here", "target": "T1, GRPR (Homo sapiens, UniProt P30550)", "T1 construct": "endogenous in cells; host or cells: PC-3 prostate cancer cells", "settings": "literature (Heimbrook 1991; Lin 1995); cited from earlier work"}
{"substance": "ranatensin", "values": [{"measurement": "binding affinity to the GRPR", "value": "very strong binding affinity"}]}
